Results as given in patent US20090227518A1, “COMPOSITIONS AND METHODS FOR TREATING ACTIN-MEDIATED MEDICAL CONDITIONS” (The Regents of the University of Colorado, priority 2005, published 2009).

Legend:
G-actin = assay: Pyrenated G-actin polymerization with actin polymerization buffer; format: biochemical; details: concentrations similar to AAT (0.69, 0.34, 0.17 mg/ml)
Protocol: An actin polymerization buffer was added to pyrenated G-actin (control), and the formation of F-actin was followed over a period of 60 minutes. As shown in FIG. 9A-9C, AAT concentrations of 0.69 mg/ml (FIG. 9A), 0.34 mg/ml (FIG. 9B), and 0.17 mg/ml (FIG. 9C) were used.

islet allograft = assay: Islet allograft transplantation in streptozotocin-induced hyperglycemic mice; format: in vivo
Protocol: 5-6 weeks old C57BL/6 mice were treated intraperitoneally (i.p.) with 225 mg/kg Streptozotocin (STZ) (Sigma). Mice with established hyperglycemia were used at least 5 days after STZ administration. Islets were isolated from DBA/2 mice on day of transplantation, or 24 hours before in vitro assays, by enzymatic digestion of pancreatic tissue. Briefly, mice were anesthetized with i.p. ketamine (50 mg/kg, Vedco Inc.) and xylazine (10 mg/kg, Vedco Inc.) Each pancreas was inflated with 3.5 ml cold collagenase (1 mg/ml, type XI, Sigma), excised and immersed for 40 minutes at 37° C. in water bath. Pancreata were gently vortexed and filtered through 500-micron metal sieve. The pellet was washed twice in cold HBSS containing 0.5% BSA (Sigma) and reconstituted in RPMI-1640 (Cellgro, Mediatech) supplemented with 10% FCS (Cellgro), 50 IU/ml Penicillin (Cellgro) and 50 μg/ml streptomycin (Cellgro). Islets were collected on a 100-micron nylon cell strainer (BD Falcon), released into a petri dish by rinsing with HBSS (Cellgro, Mediatech) and 0.5% BSA (Sigma) and hand picked under a stereomicroscope. […]
Islets isolated from DBA/2 mice (H-2d) were transplanted under the left renal capsule of streptozotocin (STZ-) induced hyperglycemic C57BL/6 mice (H-2b). Blood glucose was measured three times a week. […]

islets = assay: Streptozotocin (STZ) toxicity in vivo; set-up: species or system mice; details: 48 hours after STZ injection; AAT 2 mg one day before, same day and a day after STZ
Protocol: To test the effect of AAT on islets in vivo, STZ toxicity was evaluated. AAT (2 mg) was administered one day before, on the same day and a day after STZ injection. […] Immune cell content of freshly isolated islets was evaluated by FACS analysis. Islets contain CD45+ cells that are also positive for the monocytic/granulocytic markers GR1 and F4/80.
To assess the possibility that islet protection occurred via inhibition of release of membrane TNFα in vivo, TACE inhibitor, p75 TNFα receptor or AAT were introduced to mice prior to STZ injection.

human albumin: human albumin used as control protein
inhibition of actin polymerization (G-actin): no inhibition | islet allograft outcome (islet allograft; 6 mg i.p. one day before transplantation and every 3 days thereafter): graft rejection comparable to that of untreated recipient mice | cellular infiltration into grafted islets (Hematoxilin and Eosin) (islet allograft; grafts removed on day 7): more massive | insulin-producing cells per islet (islets): 12.8%±2.3
